# Measurements published in PubChem BioAssay AID1469 (National Center for Advancing Translational Sciences (NCATS), 2008).
# Sequences of proteins named here, by UniProt entry; tags and fusion partners are left off. A change or cut given only in a name is not applied to a line headed by its entry.
# UniProt P10828: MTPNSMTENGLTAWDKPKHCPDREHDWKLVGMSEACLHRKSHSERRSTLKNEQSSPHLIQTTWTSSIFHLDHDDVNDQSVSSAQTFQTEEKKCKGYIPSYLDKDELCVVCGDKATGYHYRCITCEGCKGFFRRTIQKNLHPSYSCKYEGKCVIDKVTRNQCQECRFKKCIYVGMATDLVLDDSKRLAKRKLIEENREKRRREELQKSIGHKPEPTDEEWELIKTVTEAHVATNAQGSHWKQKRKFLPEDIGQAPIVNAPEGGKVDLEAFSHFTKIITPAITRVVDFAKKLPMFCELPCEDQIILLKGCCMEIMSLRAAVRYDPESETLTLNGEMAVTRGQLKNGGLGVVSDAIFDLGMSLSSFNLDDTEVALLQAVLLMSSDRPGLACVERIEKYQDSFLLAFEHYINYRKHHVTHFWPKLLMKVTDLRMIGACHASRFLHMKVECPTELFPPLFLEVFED
# Several values for one entry are separate records, joined by “and”; a condition that tells them apart may be missing. Equal entries are not always repeated. The entries are a selection whose mix differs from that of the whole data set. Activity calls are given as the source filed them. Calls follow the shape of the dose curve; as a rule, active = well fitted inhibition curve with a large enough effect; inconclusive = small, poorly fitted or top-dose-only effect, or effect the other way; inactive = flat fitted curve, though single readings scatter.
# Target: Thyroid hormone receptor beta (Homo sapiens) (UniProt P10828)
# Assay: qHTS for Inhibitors of the Interaction of Thyroid Hormone Receptor and Steroid Receptor Coregulator 2;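 also: plate controls were bound peptide for no effect and peptide without receptor for full effect; nearly all actives have a fitted effect of over 50% in size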
# Details: TRbeta-SRC2 peptide binding, fluorescence polarization, receptor liganded with 1 µM T3
# Excerpt: NIH Molecular Libraries Probe Production Network [MLPCN]
# NIH Chemical Genomics Center [NCGC]
# Assay Provider: R. Kip Guy, St. Jude Children's Research Hospital
# Thyroid receptor (TR) regulates many homeostatic processes including basal metabolism, cardiovascular function, body weight, and lipid trafficking. TR modulators are potential therapeutics for obesity and hyperlipidemias but current thyroid analogs have undesirable side effects, particularly cardiac stimulation. To identify inhibitors that specifically prevent the interaction of TR with the steroid receptor coregulator 2 (SRC2), a fluorescence polarization assay was screened. This assay detects interaction of the ligand-binding domain of human TRb with a Texas Red labeled SRC2 peptide, corresponding to a 20 amino acid region of the nuclear receptor interaction domain (Arnold et al., 2006). Small molecule inhibitors that block the interaction of TR and SRC2 are detected by a decrease in fluorescence polarization.
# Arnold, L. A.; Estebanez-Perpina, E.; Togashi, M.; Shelat, A.; Ocasio, C. A.; McReynolds, A. C.; Nguyen, P.; Baxter, J. D.; Fletterick, R. J.; Webb, P.; Guy, R. K. A high-throughput screening method to identify small molecule inhibitors of thyroid hormone receptor coactivator binding. Sci STKE 2006, p 13.
# NCGC Assay Protocol Summary:
# For screening, 5 uL/well 0.6 uM TRb and 20 nM SRC2 Texas Red in protein buffer (20mM Tris hydrochloride, 100mM NaCl, 10% glycerol, 1mM EDTA, 0.01% NP-40, 1mM DTT, 1uM T3 and 5% DMSO) was dispensed into black solid 1536-well plates (Grenier) using a solenoid-based dispenser. Following transfer of 23 nL compound or DMSO vehicle by a pin tool, the plates were centrifuged 15 s at 1000 RPM and incubated 5 hr at ambient temperature. […] Data were normalized to unbound (all components except TRb) and bound SRC2 Texas Red controls. In this assay, we provide % activity data for each concentration as well as potencies for the active compounds.
# Keywords: NIH Roadmap, MLPCN, MLI, MLSMR, qHTS, NCGC, qHTS, thyroid hormone receptor, steroid receptor coactivator, fluorescence polarization
# [1] = at 106 µM (top of the series) unless noted
structure (smiles),measurement,setting,value
O=[N+]([O-])c1cccc(NC2=NCC(CBr)S2)c1 (stereo not drawn),"activity change, negative = inhibition",[1],inactive: -1.61%
O=C(Nc1cc([As](=O)(O)O)ccc1O)c1ccccc1,"activity change, negative = inhibition",[1],inactive: -4.02%
CCN(/C(=N/P(=O)(N1CCOCC1)N1CCOCC1)N1CCOCC1)c1ccc(OC)cc1,"activity change, negative = inhibition",[1],inactive: 0.266%
Nc1ccc([As](=O)(O)c2ccc(N)cc2)cc1,"activity change, negative = inhibition",[1],inactive: 1.17%
C[N+]1=C2C=CC=CC=C2SC12C([N+](=O)[O-])=CC([N+](=O)[O-])=C[C-]2[N+](=O)[O-] (stereo not drawn),"activity change, negative = inhibition",[1],inactive: 1.95%
CC1CCN(C(=O)Oc2c(Cl)cc(Cl)c3cccnc23)CC1,"activity change, negative = inhibition",[1],inactive: -3.07%
CC(=O)C1=CCCC2CCC1N2 (stereo not drawn),"activity change, negative = inhibition",[1],inactive: 4.42% and inactive: -8.25%
CC(C)=N/N=C(\N)N[N+](=O)[O-],"activity change, negative = inhibition",[1],inactive: 0.392%
CN(C)C(=O)OCCc1n(C)cc[n+]1C,"activity change, negative = inhibition",[1],inactive: 1.46%
O=[N+]([O-])c1ccc([N+](=O)[O-])cc1,"activity change, negative = inhibition",[1],inactive: -4.23% [at 201 µM]
COc1ccc(C2=NCC(CBr)S2)cc1 (stereo not drawn),"activity change, negative = inhibition",[1],inactive: 1.14%
Cc1ccc(NP(=O)(Oc2ccccc2)Oc2ccccc2)nc1,"activity change, negative = inhibition",[1],inactive: 0.299%
CCc1nc2c(n1)c1c(non1O)c1c2no[n+]1[O-],"activity change, negative = inhibition",[1],inactive: 15.3%
O=[N+]([O-])c1cc([N+](=O)[O-])c(CCNc2ccccc2)c([N+](=O)[O-])c1,"activity change, negative = inhibition",[1],inactive: 8.3%
O=[N+]([O-])c1cccc2n[nH]nc12,"activity change, negative = inhibition",[1],inactive: -6.97%
CC(=O)N1C2C3N(C(C)=O)C1C1N(C(C)=O)C(C(N1C(C)=O)N3C(C)=O)N2C(C)=O,"activity change, negative = inhibition",[1],inactive: -2.78%
Oc1ccccc1CNc1ccccn1,"activity change, negative = inhibition",[1],inactive: 7.66%
O=C(NC(Sc1ccncn1)C(Cl)(Cl)Cl)c1ccccc1 (stereo not drawn),"activity change, negative = inhibition",[1],inactive: 4.59%
Cc1c2non([O-])c-2c(C)[n+](=O)[n+]1[O-],"activity change, negative = inhibition",[1],inactive: -0.629%
CC(C)OP(=O)(OC(C)C)SCCNS(=O)(=O)c1ccccc1,"activity change, negative = inhibition",[1],inactive: -4.25% [at 201 µM]
Nc1cc(N)c2nonc2c1[N+](=O)[O-],"activity change, negative = inhibition",[1],inactive: 7.22%
CC(C)CC(=O)NC(Sc1ccc(Cl)cc1)C(Cl)(Cl)Cl (stereo not drawn),"activity change, negative = inhibition",[1],inactive: 0.638%
Cc1ccc(N/C(=N/P(=O)(N2CCOCC2)N2CCOCC2)N2CCOCC2)cc1,"activity change, negative = inhibition",[1],inactive: 0.71%
NC(=O)c1cc([N+](=O)[O-])cc([N+](=O)[O-])c1N,"activity change, negative = inhibition",[1],inactive: -8.87%
CN1CCCC(OC(=O)C(c2ccccc2)c2ccccc2)C1 (stereo not drawn),"activity change, negative = inhibition",[1],inactive: -18.1%
Clc1ccc(Cl)c(NC2=NCC(CBr)S2)c1 (stereo not drawn),"activity change, negative = inhibition",[1],inactive: 1.46%
COc1ccccc1OP(=O)(Nc1ccc(C)cn1)Oc1ccccc1OC,"activity change, negative = inhibition",[1],inactive: 3.97% [at 53 µM]
Cc1ccc(OP(=O)(Nc2nccs2)Oc2ccc(C)cc2)cc1,"activity change, negative = inhibition",[1],inactive: 8.67%
Nc1cccc2ccc([As](=O)(O)O)cc12,"activity change, negative = inhibition",[1],inactive: -17.8%
CCN(N=Nc1nonc1N)c1nonc1N,"activity change, negative = inhibition",[1],inactive: 0.101%
O=P(Nc1nc2ccc(Cl)cc2s1)(c1ccccc1)c1ccccc1,"activity change, negative = inhibition",[1],inactive: -2.27%
CC(=O)Nc1ccc([As](=O)(O)O)cc1,"activity change, negative = inhibition",[1],inactive: -7.17%
O=C(O)c1ccccc1[As](=O)(O)O,"activity change, negative = inhibition",[1],inactive: -3.72%
Cc1cc(SC(NC(=O)c2ccc(F)cc2)C(Cl)(Cl)Cl)ncn1 (stereo not drawn),"activity change, negative = inhibition",[1],inactive: 0.802%
Cc1ccc(NP(=O)(Oc2ccccc2F)Oc2ccccc2F)nc1,"activity change, negative = inhibition",[1],inactive: -0.884%
O=C(OC1CN2CCC1CC2)c1ccccc1 (stereo not drawn),"activity change, negative = inhibition",[1],inactive: 4.12%
CCC(=O)N1C2C3N(C(=O)CC)C1C1N(C(=O)CC)C(C(N1C(=O)CC)N3C(=O)CC)N2C(=O)CC,"activity change, negative = inhibition",[1],inactive: -2.56%
COC(=O)c1cc2c(s1)N=C(c1ccccc1)N(C)P2(=O)N1CCOCC1 (stereo not drawn),"activity change, negative = inhibition",[1],inactive: -0.33%
Cc1ccc(OP(=O)(Nc2ccccn2)Oc2ccc(C)cc2)cc1,"activity change, negative = inhibition",[1],inactive: 1.59%
CC(=O)NC(SC(=S)N(CC(C)C)CC(C)C)C(Cl)(Cl)Cl (stereo not drawn),"activity change, negative = inhibition",[1],inactive: -1.96%
Cc1ccccc1OP(=O)(Nc1ccccn1)Oc1ccccc1C,"activity change, negative = inhibition",[1],inactive: 4.16%
O=c1c2cc([N+](=O)[O-])ccc2[nH]c2c([N+](=O)[O-])cc([N+](=O)[O-])cc12,"activity change, negative = inhibition",[1],inactive: -4.01%
CN(C)C(=O)Oc1noc2ccccc12,"activity change, negative = inhibition",[1],inactive: 5.21%
c1ccc(-c2nn[nH]n2)c(-c2nn[nH]n2)c1,"activity change, negative = inhibition",[1],inactive: -3.33%
CCOC(=O)NC(Sc1ccccc1)C(Cl)(Cl)Cl (stereo not drawn),"activity change, negative = inhibition",[1],inactive: 2.04%
Cc1ccc(NP(=O)(Oc2cccc(C)c2)Oc2cccc(C)c2)nc1,"activity change, negative = inhibition",[1],inactive: 2.12%
CCNC(=S)/N=C(\N)N[N+](=O)[O-],"activity change, negative = inhibition",[1],inactive: 1.56%
O=C(NC1CCS(=O)(=O)C1)NP(=S)(Oc1ccccc1)Oc1ccccc1 (stereo not drawn),"activity change, negative = inhibition",[1],inactive: -2.44%
C[C@H]1OP(=O)(Oc2ccccc2)C[C@@H]2O[C@@H]21 (stereo partly drawn),"activity change, negative = inhibition",[1],inactive: 2.73%
C[C@@H]1C=CCP(=O)(Oc2ccccc2)O1 (stereo partly drawn),"activity change, negative = inhibition",[1],inactive: 8.61%
CC(=O)Nc1ccc([As](=O)(O)O)c(O)c1,"activity change, negative = inhibition",[1],inactive: 0.15%
CC(=O)Nc1ccc(Oc2c([N+](=O)[O-])cc([N+](=O)[O-])cc2[N+](=O)[O-])cc1,"activity change, negative = inhibition",[1],inactive: -11.6%
O=P1(Nc2nc3ccc(Cl)cc3s2)COc2ccccc2O1 (stereo not drawn),"activity change, negative = inhibition",[1],inactive: -19.4%
CC(C)(C)C(=O)NC(Sc1ccccc1)C(Cl)(Cl)Cl (stereo not drawn),"activity change, negative = inhibition",[1],inactive: -4.47%
CC(C)C(=O)NC(Sc1ccccc1)C(Cl)(Cl)Cl (stereo not drawn),"activity change, negative = inhibition",[1],inactive: -6.86%
O=P(Nc1nccs1)(c1ccccc1)c1ccccc1,"activity change, negative = inhibition",[1],inactive: 1.5%
c1nnnn1CCn1cnnn1,"activity change, negative = inhibition",[1],inactive: -9.27%
O=[As](O)(c1ccccc1)c1ccc(O)cc1,"activity change, negative = inhibition",[1],inactive: -0.203%
O=[N+]([O-])c1ncn(CCn2cnc([N+](=O)[O-])n2)n1,"activity change, negative = inhibition",[1],inactive: -9.12%
CC(=O)NC(SC(=S)N(C)C)C(Cl)(Cl)Cl (stereo not drawn),"activity change, negative = inhibition",[1],inactive: -2.83%
C(Cc1nn[nH]n1)Cc1nn[nH]n1,"activity change, negative = inhibition",[1],inactive: -3.58%
Nc1ccc([As](=O)(O)c2ccc([N+](=O)[O-])cc2)cc1,"activity change, negative = inhibition",[1],inactive: -2.29%
O=P(Nc1ccccn1)(c1ccc(Br)cc1)c1ccc(Br)cc1,"activity change, negative = inhibition",[1],inactive: 5.19%
Cc1cc([N+](=O)[O-])cc([N+](=O)[O-])c1O,"activity change, negative = inhibition",at 106 µM (top of the series),inactive: 2.32%
same,"activity change, negative = inhibition",at 201 µM (top of the series),inactive: -5.33%
CN(C(=O)Cc1ccccc1)[C@H]1CC[C@@]2(CCCO2)C[C@@H]1N1CCCC1,"activity change, negative = inhibition",[1],inactive: 3.98%
O=P(Nc1nc2ccccc2s1)(c1ccccc1)c1ccccc1,"activity change, negative = inhibition",[1],inactive: -4.44%
C[C@H]1OP(=O)(Oc2ccccc2)[C@H](O)[C@H](O)[C@H]1N=[N+]=[N-] (stereo partly drawn),"activity change, negative = inhibition",[1],inactive: 7.33%
